According to ChEMBL document CHEMBL3351720, “Design, synthesis and evaluation of benzoisothiazolones as selective inhibitors of PHOSPHO1” (Bioorg Med Chem Lett, 2014):

Biological target: T1, Phosphomannomutase 2 (Homo sapiens, UniProt O15305)
T1 sequence (O15305 whole entry): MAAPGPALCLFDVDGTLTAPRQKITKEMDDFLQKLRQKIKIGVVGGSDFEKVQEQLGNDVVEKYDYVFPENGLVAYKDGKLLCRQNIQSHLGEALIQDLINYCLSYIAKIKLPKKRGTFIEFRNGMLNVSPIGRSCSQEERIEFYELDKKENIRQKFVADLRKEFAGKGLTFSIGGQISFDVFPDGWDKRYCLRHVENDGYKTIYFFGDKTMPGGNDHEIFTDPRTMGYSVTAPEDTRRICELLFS
Test: Inhibition of PMM2 (unknown origin)

## O=c1c2ccccc2sn1-c1ccccc1
  IC50: > 20 µM
